Assay outcomes from PubChem BioAssay.
Compounds with a hit are over-represented: about 0.91% of the library has one in this group of screens.
FN deposition inh – inhibitors of fibronectin matrix deposition, primary screen, AH1F cells, Alexa488-fibronectin fluorescence, plate reader | AH1F fibroblasts, overnight | inhibition, % at 12.6 µM | 350,000 compounds, 0.086% hits | AID 743247, 2014;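 active = mean inhibition across replicates of 30% or more, regardless of how many single replicates reach that level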;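 also: positive control wells lacked labelled fibronectin entirely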
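Material: AH1F fibroblast monolayer depositing Alexa488-labelled fibronectin into matrix | Input: 10000 AH1F cells/well | Medium: DMEM plus 2% serum, read in PBS | Reagent: Alexa488-fibronectin, 24 nM final in well | Compound dosing: One dose per compound, pinned | Schedule: 1 h adhesion, overnight exposure | Measured by: Fluorescence at 485 nm excitation, 525 nm emission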
Yeast UUG start-1 – modulators of yeast start codon fidelity, primary screen, whole organism, S. cerevisiae, single point, plate reader | activity score, % at 18.7 µM | 350,000 tested, 0.13% active | S. cerevisiae UUG-firefly luciferase reporter, luminescence/redox ratio;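 active means replicate mean at a twofold rise or more, about +100% in these data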;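 further: firefly luciferase made from a UUG start codon reports start codon fidelity; reporter light over untreated wells divided by growth signal over untreated wells; some hits fall short of that in this replicate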
hiPSC survival – enhancers of single-cell hiPSC survival, primary screen, ATPlite luminescence. 100% = ROCK inhibitor wells, 0% = DMSO. survival enhancement, % at 20 µM. 360,000 compounds, 0.044% hits; in the data active = survival enhancement above about 18%;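 also: cells exposed to compounds for 16 hours before the ATP read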
PGC1a acetyl inh – inhibitors of PGC1a acetylation signal, primary screen, cell-based, U2OS, AlphaScreen, inhibitor mode; inhibition, % at 15.6 µM; 350,000 compounds, 0.17% hits; AlphaScreen anti-acetyl-lysine; with virally co-expressed GCN5 acetyltransferase;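 active = every replicate shows inhibition of at least 40%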;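 also: 0% = neutral control wells and 100% = positive control wells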
C2C12 statin – suppressors of statin myotoxicity in C2C12 myotubes, primary screen, cell-based, single point, plate reader; 330,000 compounds, 0.78% hits; AID 602340, 2012; rescue of ATP level, % at 7.49 µM; C2C12 myotubes + simvastatin, ATP luminescence, 48 h; scaled: DMSO 0, geranylgeraniol control 100;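 active = mean ATP rescue above about 67%, or every replicate alone reaching that limit, limit read from the data, passing the limit was not always enough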;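 also: myotubes were challenged with 10 µM simvastatin during compound exposure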
Yeast UUG start-2 – enhancers of UUG start codon usage in yeast, dose response, S. cerevisiae, UUG firefly luciferase, cherry-pick, set 2 | luminescence, 4 h; 100% means double the DMSO signal | 540 tested, under 10 active | shares compounds with Yeast UUG start-1 | activation, % at 38 µM;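 active = signal increase whose fitted curve reaches an absolute level of 40 at a concentration under 10 µM; inactive = activity opposite to the expected increase, or the rest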
Active calls of the source: *; i = inactive; x = no result; ! = not active in a repeat.

Sequence of screens – FN deposition inh	Yeast UUG start-1	hiPSC survival	PGC1a acetyl inh	C2C12 statin	Yeast UUG start-2
C[C@@H]1CN([C@@H](C)CO)S(=O)(=O)c2ccc(C#CC3CC3)cc2O[C@@H]1CN(C)Cc1cccc(F)c1
    -5.4	129.7*	x	-23.7	2.1	i
C[C@H]1CN([C@@H](C)CO)S(=O)(=O)c2ccc(C#CC3CC3)cc2O[C@@H]1CN(C)Cc1cccc(F)c1
    -14.8	-8.5	x	-1.8	-13.0	x
C[C@H]1CN([C@@H](C)CO)S(=O)(=O)c2ccc(C#Cc3cccc(F)c3)cc2O[C@@H]1CN(C)C
    -1.6	107.2*	x	-4.0	2.3	i
O=C(NCC[C@@H]1CC[C@H](NS(=O)(=O)c2cccc(F)c2)[C@@H](CO)O1)C1CCCCC1
    -0.1	-12.7	x	-0.1	5.0	x
CCOc1ccc(C(=O)NCC(=O)OCC(=O)c2ccc3c(c2)-c2ccccc2C3)cc1
    -3.9	x	1.2	16.5	12.5	x
COc1ccccc1C(=O)NCC(=O)OCC(=O)c1ccc2c(c1)-c1ccccc1C2
    -5.1	551.0*	0.5	-3.5	18.2	3.3
C[C@H](CO)N1C[C@H](C)[C@@H](CN(C)Cc2cncnc2)Oc2ncc(/C=C/c3ccccc3)cc2C1=O
    -17.3	249.8*	x	8.9	-55.9	i
C[C@H](CO)N1C[C@H](C)[C@H](CN(C)Cc2ccncc2)Oc2ncc(-c3cccc(C#N)c3)cc2C1=O
    8.5	109.8*	x	1.8	3.2	i
COc1ccc(-c2cnc3c(c2)C(=O)N([C@@H](C)CO)C[C@@H](C)[C@H](CN(C)Cc2cccnc2)O3)cc1
    -2.1	144.8*	x	-3.6	23.9	i
COc1ccccc1-c1cnc2c(c1)C(=O)N([C@@H](C)CO)C[C@@H](C)[C@H](CN(C)C(=O)c1cccnc1)O2
    -5.8	199.6*!	2.3	-7.0	5.2	i
C[C@@H]1CN([C@@H](C)CO)C(=O)c2ccccc2-c2ccccc2CO[C@@H]1CN(C)S(=O)(=O)c1ccccc1F
    -6.9	x	x	8.5	1.0	x
C[C@H](CO)N1C[C@H](C)[C@H](CN(C)CC2CC2)Oc2cc(-c3cncnc3)ccc2S1(=O)=O
    x	-7.6	x	3.9	-0.2	x
O=C(C[C@@H]1CC[C@@H]2[C@H](COC[C@H](O)CN2Cc2ccc(Oc3ccccc3)cc2)O1)N1CCOCC1
    1.0	-0.7	x	1.1	29.2	x
CC(C)NC(=O)Nc1ccc2c(c1)C(=O)N([C@@H](C)CO)C[C@@H](C)[C@H](CN(C)C(=O)Nc1ccc(F)cc1)OCCCC[C@@H](C)O2
    -0.9	-10.1	x	4.4	x	x
C[C@H](CO)N1C[C@H](C)[C@H](CN(C)C(=O)NC2CCCCC2)OCCCC[C@H](C)Oc2ccc(NS(=O)(=O)c3ccc(Cl)cc3)cc2C1=O
    -5.0	5.8	x	7.4	x	x
C[C@@H]1CN([C@@H](C)CO)C(=O)c2cc(-c3cccnc3)cnc2O[C@H]1CN(C)C(=O)c1ccccc1F
    x	166.1*	x	-0.7	-2.4	i
COc1ccccc1-c1cnc2c(c1)C(=O)N([C@@H](C)CO)C[C@@H](C)[C@@H](CN(C)Cc1ccncc1)O2
    -2.4	137.2*	x	-3.8	28.9	i
Cc1ccc(C(=O)NCCSC(C)(C)C)cc1
    x	321.4*	-1.5	-3.6	x	-32.1
CCCC#Cc1cnc2c(c1)C(=O)N([C@H](C)CO)C[C@@H](C)[C@@H](CN(C)Cc1ccc(F)cc1)O2
    -5.5	-13.6	x	-9.6	26.1	x
CCCN(C)C[C@@H]1Oc2cc(C#Cc3ccc(OC)cc3)ccc2S(=O)(=O)N([C@H](C)CO)C[C@@H]1C
    x	-5.9	x	-24.3	4.7	x

Reprinted from above (5 entries):
Sequence of screens – FN deposition inh	Yeast UUG start-1	hiPSC survival	PGC1a acetyl inh	C2C12 statin	Yeast UUG start-2
C[C@@H]1CN([C@@H](C)CO)S(=O)(=O)c2ccc(C#CC3CC3)cc2O[C@@H]1CN(C)Cc1cccc(F)c1
    -5.4	129.7*	x	-23.7	2.1	i
C[C@H]1CN([C@@H](C)CO)S(=O)(=O)c2ccc(C#CC3CC3)cc2O[C@@H]1CN(C)Cc1cccc(F)c1
    -14.8	-8.5	x	-1.8	-13.0	x
C[C@H]1CN([C@@H](C)CO)S(=O)(=O)c2ccc(C#Cc3cccc(F)c3)cc2O[C@@H]1CN(C)C
    -1.6	107.2*	x	-4.0	2.3	i
O=C(NCC[C@@H]1CC[C@H](NS(=O)(=O)c2cccc(F)c2)[C@@H](CO)O1)C1CCCCC1
    -0.1	-12.7	x	-0.1	5.0	x
CCOc1ccc(C(=O)NCC(=O)OCC(=O)c2ccc3c(c2)-c2ccccc2C3)cc1
    -3.9	x	1.2	16.5	12.5	x

(next part)
Sequence of screens – FN deposition inh	Yeast UUG start-1	hiPSC survival	PGC1a acetyl inh	C2C12 statin	Yeast UUG start-2
CN(C)CC#Cc1ccc([C@H]2[C@@H](CO)N3CCCCN(C(=O)C4CCC4)C[C@@H]23)cc1
    x	-3.5	x	2.9	4.4	x
O=C(Nc1ccc(Nc2ccccc2)cc1)c1ccco1
    -11.8	610.4*	0.2	x	-46.6	-14.4
O=C(Nc1ccc(NC(=O)c2ccco2)cc1)c1ccco1
    x	-6.4	0.3	x	-11.5	x
C[C@@H]1CN([C@@H](C)CO)C(=O)c2ccccc2-c2ccccc2CO[C@@H]1CN(C)Cc1ccc(Oc2ccccc2)cc1
    13.5	x	x	x	x	x
O=C(NC1CCCC1)[C@H]1[C@H](CO)[C@H]2Cn3c(cccc3=O)[C@@H]1N2Cc1cc(F)ccc1F
    x	-8.8	x	x	19.0	x
CCc1ccc(/C=N/NC(=O)c2cc(C3CC3)nc3ccccc23)s1
    8.8	307.4*	0.3	x	-94.3	-4.4
CC(C)NC(=O)Nc1ccc2c(c1)CC(=O)N([C@@H](C)CO)C[C@H](C)[C@@H](CN(C)Cc1ccccc1)O2
    x	-3.0	x	11.1	-6.0	x
COc1ccc(CCNS(=O)(=O)c2cccc(S(=O)(=O)N3CCCC3)c2)cc1OC
    x	13.8	4.9	-10.8	13.3	x
COc1ccc(CCNS(=O)(=O)c2cnc(Cl)c(Br)c2)cc1OC
    -2.5	-10.8	-0.1	14.4	x	x
COc1ccc(CCNS(=O)(=O)c2cccc(F)c2)cc1OC
    x	0.1	2.5	x	30.3	1.0
COc1ccc(CCNS(=O)(=O)c2ccc(Br)cc2)cc1
    1.0	-10.7	0.1	x	11.5	x
COc1ccc(CCNS(=O)(=O)c2cccc(C)c2)cc1OC
    -13.3	-7.1	-2.0	5.9	25.3	8.5
COc1ccc(CCNS(=O)(=O)c2ccc3c(c2)OCCO3)cc1OC
    3.7	x	0.3	x	x	-3.1
COc1ccc(S(=O)(=O)NCCc2ccccc2)cc1
    x	10.2	0.6	-2.9	-6.6	-0.2
COc1ccc(S(=O)(=O)N(C)C[C@H]2Oc3c(NS(=O)(=O)c4ccccc4)cccc3C(=O)N([C@@H](C)CO)C[C@@H]2C)cc1
    x	2.9	x	4.2	-16.2	x
CCC(=O)Nc1ccc2c(c1)C(=O)N(C)[C@H]1CC[C@@H](CC(=O)O)O[C@@H]1CO2
    -1.7	-13.0	x	5.7	25.8	x
COc1ccc(S(=O)(=O)NCCc2ccc(OC)c(OC)c2)cc1Cl
    x	x	x	x	x	i
COc1ccc(CCNS(=O)(=O)c2ccc3c(c2)CCCC3)cc1OC
    -4.3	-4.6	-0.1	-1.9	7.7	x
C[C@@H]1CN([C@@H](C)CO)C(=O)c2c(c3ccccc3n2C)-c2ccccc2CO[C@H]1CN(C)Cc1cccc2c1OCCCO2
    -15.1	x	x	-24.3	x	x
Cc1csc(NC(=O)c2ccco2)n1
    x	-20.5	0.5	0.8	16.8	x
O=C(O)Cc1csc(NC(=O)c2ccco2)n1
    x	373.0*	-1.2	7.7	x	10.2
O=C(C[C@@H]1CC[C@H](NC(=O)c2cccc(F)c2)[C@@H](CO)O1)NCc1ccc(Oc2ccccc2)cc1
    x	144.6*	x	-0.9	10.4	i
Cc1noc(C)c1NC(=O)N(C)C[C@H]1OCCCC[C@H](C)Oc2ccc(NS(=O)(=O)c3cccs3)cc2C(=O)N([C@@H](C)CO)C[C@H]1C
    x	-4.1	x	9.0	x	x
